Experimental data: patent US11230683B2 (priority 2020, dated 2022)
In brackets after ≈: the same amount, converted by molar mass.

By UniProt entry, the sequences of proteins in these tests, tags left out. Where a name states a change or a piece, a line headed by the entry shows the natural chain unless it says otherwise.
UniProt P81908, whole entry, looked up: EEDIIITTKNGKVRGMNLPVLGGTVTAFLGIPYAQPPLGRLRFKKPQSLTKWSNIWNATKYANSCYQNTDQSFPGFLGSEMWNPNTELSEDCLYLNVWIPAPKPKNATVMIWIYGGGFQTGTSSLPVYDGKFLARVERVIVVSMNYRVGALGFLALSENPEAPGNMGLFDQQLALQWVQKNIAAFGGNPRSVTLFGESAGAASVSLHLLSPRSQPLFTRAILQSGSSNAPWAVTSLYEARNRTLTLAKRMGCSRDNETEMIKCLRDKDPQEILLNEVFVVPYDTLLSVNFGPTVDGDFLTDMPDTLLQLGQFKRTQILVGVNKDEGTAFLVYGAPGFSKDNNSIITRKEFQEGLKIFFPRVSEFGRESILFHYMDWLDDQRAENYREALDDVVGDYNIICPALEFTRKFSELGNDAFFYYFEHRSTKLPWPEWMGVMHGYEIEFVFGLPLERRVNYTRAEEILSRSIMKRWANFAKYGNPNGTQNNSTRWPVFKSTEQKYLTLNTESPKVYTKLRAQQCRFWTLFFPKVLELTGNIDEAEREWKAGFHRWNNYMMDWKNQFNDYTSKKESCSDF
UniProt P22303: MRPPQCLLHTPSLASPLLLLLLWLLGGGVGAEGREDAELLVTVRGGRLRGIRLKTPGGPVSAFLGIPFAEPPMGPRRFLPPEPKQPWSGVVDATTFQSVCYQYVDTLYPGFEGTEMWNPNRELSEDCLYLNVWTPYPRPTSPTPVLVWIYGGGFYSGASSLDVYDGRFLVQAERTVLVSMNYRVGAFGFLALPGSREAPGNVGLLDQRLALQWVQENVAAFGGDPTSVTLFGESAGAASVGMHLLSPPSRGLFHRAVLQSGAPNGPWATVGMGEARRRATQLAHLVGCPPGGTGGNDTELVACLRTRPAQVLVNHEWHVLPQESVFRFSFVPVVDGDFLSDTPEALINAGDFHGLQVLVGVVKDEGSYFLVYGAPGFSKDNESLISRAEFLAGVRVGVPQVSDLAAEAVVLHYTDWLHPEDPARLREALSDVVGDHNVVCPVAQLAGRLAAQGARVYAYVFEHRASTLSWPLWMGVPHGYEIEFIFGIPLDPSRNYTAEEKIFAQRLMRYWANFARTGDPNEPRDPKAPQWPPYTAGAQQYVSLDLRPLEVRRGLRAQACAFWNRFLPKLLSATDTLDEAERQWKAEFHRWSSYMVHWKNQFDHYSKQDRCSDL

Assays:
[1] = molecular target: BuChE from equine serum (eqBuChE) (Equus caballus, UniProt P81908); experiment: Inhibition of butyrylcholinesterase, spectrometric method of Ellman; type: biochemical; conditions: 5 min pre-incubation 25° C., n=3, Compound 2 value for n = 1
[2] = molecular target: human erythrocyte AChE (hAChE) (Homo sapiens, UniProt P22303); experiment: Inhibition of acetylcholinesterase, spectrometric method of Ellman; type: biochemical; conditions: 5 min pre-incubation 25° C., n=3, Compound 2 value for n = 1
[3] = Risk level score (sum of five risk factors); conditions: score 0 to 5, sum of factors 0 or 1 for hAChE IC50, eqBuChE IC50, QSAR neurotoxicity, QSAR reprotoxicity, cluster; 0 = lack of risk, 5 = very high risk

SMILES: CCCCOP(=O)(OCCCC)OCCCC
- IC50 eqBuChE [1]: 21 µg/mL (≈ 78.9 µM)
- IC50 hAChE [2]: 7.9 µg/mL (≈ 29.7 µM)
- Risk level [3]: 3
